Source: PubChem BioAssay AID2058 (Sanford-Burnham Center for Chemical Genomics, 2009)
Screen size: about 290,000 compounds; about 150 (0.052%) were called active. These results got no clear call from the source, so the numbers are uncertain.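 Rule for the calls: active = inhibition of at least 50% with at least 30 cells and total cytoplasm GFP at most 10,000,000; inconclusive = under 30 cells or total GFP of 10,000,000 plus; inactive = the rest.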

The chains behind the UniProt entries cited, without tags or fusion partners. Where a name states a change or a piece, a line headed by the entry shows the natural chain unless it says otherwise.
UniProt Q9HC97: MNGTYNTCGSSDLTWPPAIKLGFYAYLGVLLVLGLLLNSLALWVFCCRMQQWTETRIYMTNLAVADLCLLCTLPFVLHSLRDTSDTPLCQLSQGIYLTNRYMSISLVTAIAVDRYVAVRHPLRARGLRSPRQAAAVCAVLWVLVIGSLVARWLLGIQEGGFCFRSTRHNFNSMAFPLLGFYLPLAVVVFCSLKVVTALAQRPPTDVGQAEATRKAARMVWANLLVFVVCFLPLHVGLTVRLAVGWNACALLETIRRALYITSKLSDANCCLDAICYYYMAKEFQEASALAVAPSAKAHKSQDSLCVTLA

What follows are compounds tested against G-protein coupled receptor 35 (Homo sapiens) (UniProt Q9HC97) (assay: inhibition of zaprinast-stimulated GPR35 beta-arrestin translocation – imaging, U2OS, beta-arrestin-GFP, zaprinast agonist, primary screen (AID 2058)). Settings: zaprinast antagonism, at 10 µM, hits give high values.

Row | SMILES | inhibition
1 | O=P(Nc1ccccn1)(c1cccc2ccccc12)c1cccc2ccccc12 | inconclusive: 9.6%
